The results in this text go back to patent publication US20170216329A1, “Ceramide-Rubusoside Nanomicelles and Their Use in Cancer Therapy” (Board of Supervisors of Louisiana State University and …, priority 2014, published 2017).

The test system of this test is OVCAR-3 human ovarian cancer cells (missense R248G). The test is described as follows: cells.

As usually defined, the EC50 is the midpoint of the concentration-response curve. Lower therefore signals a more potent agent. As to `COc1cccc2c1C(=O)c1c(O)c3c(c(O)c1C2=O)C[C@@](O)(C(=O)CO)C[C@@H]3O[C@H]1C[C@H](N)[C@H](O)[C@H](C)O1` [doxorubicin], the EC50 turned out to be 90 nM (OVCAR-3, OVCAR-3 cells with MBO-asGCS treatment) and 750 nM (OVCAR-3, OVCAR-3 cells without MBO-asGCS treatment).
